{"source": "patent US7629379B2", "about": "“Substituted phosphonate fluorescent sensors and use thereof” (Queen Mary & Westfield College, priority 2003, dated 2009)", "tested_on": "Slices of rat brain", "test": "Penetration into rat brain slices, fluorescence microscopy", "conditions": "slices 8-30 μm, in BME, one hour, washed with PBS", "data": [{"substance": "diethyl 7-oxomethylphosphonate -4-methylcoumarin", "values": [{"measurement": "penetration of brain cell types and regions", "result": "entered into the endothelial and axon cells but not the neurons cells"}]}]}
